The subject of the experiment is EC. Nature of the experiment: EC proliferation. It counts as cell-based.

The structures appear in SMILES notation.

Regarding `Nc1nc(N)c2nc(-c3cccc(O)c3)cnc2n1` [Compound II, 3-(2,4-diaminopteridin-6-yl)phenol], the “effect on EC proliferation” value is reported as “strongly inhibited”.

For the origin of these results see patent publication US7691858B2, “Kinase inhibitors and methods of use thereof” (TargeGen, Inc., priority 2006, dated 2010).
